Data as given in PubChem BioAssay AID743238 (Broad Institute, 2013).
The list shows a part of the results, in another mix than the full data. Calls of active or inactive are those of the source.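 How the source made its calls: active means mean normalized replicate activation at least 10% and every replicate at or above 10%; inconclusive means only one of the two criteria met; inactive means mean below 10% and not all replicates reach 10%.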

Assay: activators of inactive X chromosome reactivation, primary screen, imaging, XiGFP fibroblasts, GFP high-content imaging, set 2 (AID 743238);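 further: 0% = median of on-plate neutral control wells and 100% = ellipticine 6 µM median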
Settings: XiGFP mouse fibroblasts, % GFP-positive cells imaging, 3 d; at 7.58 µM; active compounds read high; cells co-treated with 5-aza-dC sensitizer; scaled so ellipticine positive control = 100%
Procedure, shortened: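 System: 68-5-11 XiGFP fibroblast line; Timing: 3 days compound exposure; Compound dosing: one concentration, pinned; Benchmarks: positive control ellipticine, 6 µM final; Buffer or medium: DMEM containing 5-aza-dC.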

Row | Structure (SMILES) | activation
1 | CCCN1CCC(Nc2cc(OC)cc(OC)c2)CC1 | inactive: -0.0135%
2 | Cc1cc(N(CCCl)CCCl)ccc1C=O | inactive: 0.178%
3 | C/C(N)=N\P(=O)(Oc1ccccc1)Oc1ccccc1 | inactive: 0.278%
4 | CN(C)C1(CNC(=O)c2cccc(C#N)c2)CCCCC1 | inactive: 0.009%
5 | CC(C)(C)n1nnnc1C(c1cccc2ccccc12)N1CCC(n2c(=O)[nH]c3ccccc32)CC1 (stereo not drawn) | inactive: 0.003%
6 | CC(C)(C)OC(=O)N1CCC(N(C(=O)c2ccccc2)c2ccc(Cl)cc2)CC1 | inactive: -0.083%
7 | N#Cc1ccc(C(=O)NCC2(N3CCCCC3)CCCCC2)cc1 | inactive: 0.082%
8 | COc1cccc(C(c2nnnn2C(C)(C)C)N2CCC(n3c(=O)[nH]c4ccccc43)CC2)c1OC (stereo not drawn) | inactive: 0.181%
9 | CCOC(=O)N1CCC(Nc2ccc(C)cc2)CC1 | inactive: 0.17%
10 | CCCCn1nnnc1C(c1cccc(OC)c1OC)N1CCC(n2c(=O)[nH]c3ccccc32)CC1 (stereo not drawn) | inactive: 0.253%
11 | O=c1[nH]c2ccccc2n1C1CCN(C(c2cccs2)c2nnnn2C2CCCC2)CC1 (stereo not drawn) | inactive: -0.139%
12 | O=C(OC1CN2CCC1CC2)C1c2ccccc2C=Cc2ccccc21 (stereo not drawn) | inactive: 0.448%
13 | O=C(NCC1(N2CCOCC2)CCCCC1)c1cc(Br)ccc1Cl | inactive: 0.0945%
14 | COc1cc(C(=O)NCC2(N3CCOCC3)CCCCC2)cc(OC)c1C | inactive: 2.25%
15 | CCCCn1nnnc1C(c1ccccc1)N1CCC(n2c(=O)[nH]c3ccccc32)CC1 (stereo not drawn) | inactive: 0.168%
16 | O=c1[nH]c2ccccc2n1C1CCN(C(c2ccnc3ccccc23)c2nnnn2C2CCCC2)CC1 (stereo not drawn) | inactive: -0.171%
17 | COc1ccc(C(=O)NCC2(N3CCOCC3)CCCCC2)cc1OC | inactive: 0%
18 | O=c1[nH]c2ccccc2n1C1CCN(C(c2cccs2)c2nnnn2C2CCCCC2)CC1 (stereo not drawn) | inactive: 0.093%
19 | COc1cc(OC)cc(C(=O)NCC2(N3CCOCC3)CCCCC2)c1 | inactive: -0.0065%
20 | COc1cccc(C(=O)N(c2cc(C)cc(C)c2)C2CCN(C(=O)OC(C)(C)C)CC2)c1 | inactive: 0.003%
21 | CN1CCC(Nc2ccc(Cl)cc2)CC1 | inactive: 0.159%
22 | CN1CCC(Nc2ccc(F)c(Cl)c2)CC1 | inactive: 0.173%
23 | CCCOc1ccc(C(=O)NCC2(N(C)C)CCCCC2)cc1 | inactive: -0.004%
24 | O=c1[nH]c2ccccc2n1C1CCN(C(c2cc3ccccc3o2)c2nnnn2C2CCCC2)CC1 (stereo not drawn) | inactive: -0.0805%

Row | Structure (SMILES) | activation
25 | O=C(O)C1(Nc2ccccc2)CCN(Cc2ccccc2)CC1 | inactive: 0.0685%
26 | NN(c1ccccc1)C1CCN(CCc2ccccc2)CC1 | inactive: 0.033%
27 | CC(C)(C)OC(=O)N1CCC(Nc2ccccc2)CC1 | inactive: 0.0305%
28 | CC(C)(C)n1nnnc1C(c1ccnc2ccccc12)N1CCC(n2c(=O)[nH]c3ccccc32)CC1 (stereo not drawn) | inactive: -0.0575%
29 | COc1ccc(C(c2nnnn2C2CCCCC2)N2CCC(n3c(=O)[nH]c4ccccc43)CC2)cc1 (stereo not drawn) | inactive: 0.98%
30 | CCN1CCC(Nc2cccc(F)c2)CC1 | inactive: 0.539%
31 | Cc1ccccc1NC1(C#N)CCN(Cc2ccccc2)CC1 | inactive: 0.435%
32 | Cn1c(=O)[nH]cc(N(CCCl)CCCl)c1=O | inactive: -0.0215%
33 | CN(C)c1ccc(C(=O)NCC2(N3CCCCC3)CCCCC2)cc1 | inactive: 0.232%
34 | O=C(NCC1(N2CCCCC2)CCCCC1)c1ccco1 | inactive: 0.429%
35 | O=c1[nH]c2ccccc2n1C1CCN(C(c2ccnc3ccccc23)c2nnnn2C2CCCCC2)CC1 (stereo not drawn) | inactive: -0.014%
36 | COc1cc(OC)cc(C(=O)NCC2(N3CCCCC3)CCCCC2)c1 | inactive: 0.0195%
37 | CCC(c1nnnn1C1CCCCC1)N1CCC(n2c(=O)[nH]c3ccccc32)CC1 (stereo not drawn) | inactive: 0.397%
38 | CC(=O)N(c1ccccc1)C1CCNCC1 | inactive: 0.011%
39 | COc1cccc(C(c2nnnn2C2CCCCC2)N2CCC(n3c(=O)[nH]c4ccccc43)CC2)c1OC (stereo not drawn) | inactive: 0.141%
40 | Cc1ccc(NC2(C#N)CCN(Cc3ccccc3)CC2)cc1 | inactive: -0.047%
41 | Cc1ccc(C(=O)NCC2(N3CCCCC3)CCCCC2)o1 | inactive: -0.16%
42 | O=c1[nH]c2ccccc2n1C1CCN(C(c2ccccc2)c2nnnn2C2CCCCC2)CC1 (stereo not drawn) | inactive: -0.0985%
43 | O=c1[nH]c2ccccc2n1C1CCN(C(c2cccc3ccccc23)c2nnnn2C2CCCC2)CC1 (stereo not drawn) | inactive: 0.0375%
44 | COc1cc(C(=O)NCC2(N(C)C)CCCCC2)ccc1OC(F)F | inactive: 0.0475%
45 | CCOC(=O)N1CCC(Nc2cccc(C)c2)CC1 | inactive: 0.0115%
46 | CCOc1ccc(C)cc1CN(CCCl)CCCl | inactive: 0.0315%
47 | CC(C)(C)n1nnnc1C(c1ccccc1)N1CCC(n2c(=O)[nH]c3ccccc32)CC1 (stereo not drawn) | inactive: -0.033%
48 | CCOC(=O)N1CCC(Nc2ccc(F)cc2)CC1 | inactive: 0.079%

Row | Structure (SMILES) | activation
49 | O=C(NCC1(N2CCCCC2)CCCCC1)c1ccc(F)cc1 | inactive: 0.502%
50 | O=P1(N(CCCl)CCCl)SCCCS1 | inactive: 0.021%
51 | CCCCOc1ccc(C(=O)NCC2(N3CCOCC3)CCCCC2)cc1 | inactive: 0.148%
52 | Cc1cc(C)cc(N(C(=O)c2ccccc2)C2CCN(C(=O)OC(C)(C)C)CC2)c1 | inactive: -0.036%
53 | O=c1[nH]c2ccccc2n1C1CCN(C(c2ccccc2OC(F)(F)F)c2nnnn2C2CCCCC2)CC1 (stereo not drawn) | inactive: -0.06%
54 | O=C(NCC1(N2CCCCC2)CCCCC1)c1ccc(Cl)nc1 | inactive: -0.223%
55 | CCCCn1nnnc1C(c1ccc(OC)cc1)N1CCC(n2c(=O)[nH]c3ccccc32)CC1 (stereo not drawn) | inactive: 0.0935%
56 | CCOC(=O)N1CCC(Nc2ccc(OC)cc2)CC1 | inactive: 0.077%
57 | COc1ccc(Cl)cc1C(=O)NCC1(N2CCOCC2)CCCCC1 | inactive: 0.059%
58 | O=c1[nH]c2ccccc2n1C1CCN(C(c2cc3ccccc3o2)c2nnnn2C2CCCCC2)CC1 (stereo not drawn) | inactive: 0.028%
59 | O=C(NCC1(N2CCCCC2)CCCCC1)c1ccc(Cl)s1 | inactive: -0.0735%
60 | N#CC1(Nc2ccccc2)CCN(Cc2ccccc2)CC1 | inactive: -0.068%
61 | CCCCn1nnnc1C(c1cccs1)N1CCC(n2c(=O)[nH]c3ccccc32)CC1 (stereo not drawn) | inactive: 0.183%
62 | CCCCn1nnnc1C(CC)N1CCC(n2c(=O)[nH]c3ccccc32)CC1 (stereo not drawn) | inactive: -0.0395%
63 | O=C(NCC1(N2CCCCC2)CCCCC1)c1cccs1 | inactive: -0.0905%
64 | O=C(NCC1(N2CCCCC2)CCCCC1)c1ccc(=O)[nH]c1 | inactive: 0.124%
65 | CCC(c1nnnn1C1CCCC1)N1CCC(n2c(=O)[nH]c3ccccc32)CC1 (stereo not drawn) | inactive: -0.0135%
66 | COc1ccc(C(=O)NCC2(N3CCCCC3)CCCCC2)c(OC)c1OC | inactive: -0.0125%
67 | CC(C)(C)OC(=O)N1CCC(N(C(=O)c2ccccc2)c2ccc(F)cc2)CC1 | inactive: -0.0245%
68 | COc1ccc(C(=O)NCC2(N3CCCCC3)CCCCC2)cc1 | inactive: 0.0585%
69 | Cc1cccc(NC2(C#N)CCN(Cc3ccccc3)CC2)c1 | inactive: -0.059%
70 | CSc1ccccc1C(=O)NCC1(N2CCCCC2)CCCCC1 | inactive: 0.262%
71 | O=C(NCC1(N2CCCCC2)CCCCC1)c1cncc(Br)c1 | inactive: -0.0545%
72 | CCCOc1ccc(C(=O)NCC2(N(C)C)CCCCC2)cc1OC | inactive: 0.0125%

Row | Structure (SMILES) | activation
73 | Cc1ccc(C(=O)NCC2(N(C)C)CCCCC2)o1 | inactive: -0.0465%
74 | COc1ccc(C(c2nnnn2C2CCCC2)N2CCC(n3c(=O)[nH]c4ccccc43)CC2)cc1 (stereo not drawn) | inactive: 0.038%
75 | CN(C)c1cccc(C(=O)NCC2(N3CCCCC3)CCCCC2)c1 | inactive: 0.0015%
76 | COc1ccc(CN(CCCl)CCCl)cc1Cl | inactive: 0.12%
77 | CC(C)c1ccc(NC2CCN(C(=O)OC(C)(C)C)CC2)cc1 | inactive: 0.0525%
78 | CCCCn1nnnc1C(c1ccnc2ccccc12)N1CCC(n2c(=O)[nH]c3ccccc32)CC1 (stereo not drawn) | inactive: 0.003%
79 | CCC(c1nnnn1C(C)(C)C)N1CCC(n2c(=O)[nH]c3ccccc32)CC1 (stereo not drawn) | inactive: 0.0875%
80 | O=C(NCC1(N2CCOCC2)CCCCC1)c1cc(F)c(F)cc1Cl | inactive: 0.0175%
81 | COc1cc(OC)c(C(=O)NCC2(N(C)C)CCCCC2)cc1OC | inactive: -0.0315%
82 | O=C(NCC1(N2CCCCC2)CCCCC1)c1cccc(C(F)(F)F)c1 | inactive: 0.149%
83 | CCCCn1nnnc1C(c1cccc2ccccc12)N1CCC(n2c(=O)[nH]c3ccccc32)CC1 (stereo not drawn) | inactive: -0.054%
84 | CN1CCN(CCOC(=O)C(O)(c2ccccc2)c2ccccc2)CC1 | inactive: -0.0475%
85 | COc1ccc(NC2CCN(C(=O)OC(C)(C)C)CC2)cc1 | inactive: 0.37%
86 | CC(C)c1ccc(C(=O)NCC2(N3CCOCC3)CCCCC2)cc1 | inactive: -0.123%
87 | COc1cc(C(=O)NCC2(N3CCCCC3)CCCCC2)ccc1OC(F)F | inactive: 0.431%
88 | O=C(NCC1(N2CCCCC2)CCCCC1)c1ccc(OC(F)F)cc1 | inactive: -0.0785%
89 | CC(C)(C)n1nnnc1C(c1ccccc1OC(F)(F)F)N1CCC(n2c(=O)[nH]c3ccccc32)CC1 (stereo not drawn) | inactive: -0.0305%
90 | O=C(NCC1(N2CCCCC2)CCCCC1)c1cccc([N+](=O)[O-])c1 | inactive: 0.324%
91 | CSc1ccc(C(=O)NCC2(N3CCOCC3)CCCCC2)cc1 | inactive: 0.022%
92 | O=c1[nH]c2ccccc2n1C1CCN(C(c2ccccc2OC(F)(F)F)c2nnnn2C2CCCC2)CC1 (stereo not drawn) | inactive: 0.233%
93 | CCN1CCC(Nc2ccc(Cl)cc2)CC1 | inactive: 0.139%
